Shown are actives, neighbours in structure and some others; about 1.3% of the full set was active somewhere.
miR-122 sensor: inhibitors of miR-122 in Huh7 cells. 340,000 compounds, 0.3% hits. AID 602342. activation (reporter increase), % at 12.5 µM. Huh7 miR-122 Renilla luciferase sensor, 48 h; neutral wells = 0, positive control = 100;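 active = mean replicate activation score at least 90 and every replicate individually at or above 90; inconclusive = only one of the two criteria met; inactive = neither criterion met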;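 also: higher luciferase means less miR-122 activity so hits act as miR-122 inhibitors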
EWS-Fli block: blocks EWS/Fli oncoprotein-driven transcription; 350,000 compounds, 0.67% hits; inhibition, % at 12.6 µM; A673 NR0B1-luciferase reporter, viability-normalised; AID 651661;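 active = mean inhibition of at least 50% after viability correction, with every replicate also passing that limit; inconclusive = mean reaches 50% but only one of two replicates passes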;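 also: firefly luciferase signal divided by Alamar Blue viability fluorescence both relative to DMSO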
F508del corr: CFTR F508del correction in bronchial cells | CFBE cells, YFP halide quenching; stimulated with forskolin plus potentiator P3; % fluorescence drop versus neutral controls | activity (quench increase), % at 7.58 µM | 350,000 compounds, 0.36% hits;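 active = mean added fluorescence quench of at least 8% versus neutral control, with both replicates also reaching 8%; inconclusive = only one of the mean or replicate conditions met; inactive = mean below 8% and not both replicates reaching 8%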;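 also: cells transiently co-express mutant CFTR-F508del with the halide-sensitive YFP; corrector assay measuring rescue of mutant channel to the surface after 24 h compound exposure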
Yeast UUG start: modulators of start codon recognition fidelity in yeast; AID 602363; activity score, % at 18.7 µM; S. cerevisiae UUG-firefly luciferase reporter, luminescence/redox ratio; actives 0.13% (n = 350,000);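 active = replicate mean at a twofold rise or more, about +100% in these data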;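 note: firefly luciferase made from a UUG start codon reports start codon fidelity; reporter light over untreated wells divided by growth signal over untreated wells; some hits fall short of that in this replicate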
PglD DTNB: inhibitors of Campylobacter jejuni PglD acetyltransferase; purified PglD enzyme, DTNB colorimetric CoA detection; inhibition, % at 12.5 µM; 360,000 compounds, 0.098% hits; in the data active = inhibition above about 16%, passing the limit was not always enough; inconclusive = no clear call, values can overlap the other calls
LGR2 antag: Drosophila LGR2 receptor signaling inhibition; HEK293 LGR2, CRE-luciferase, bursicon-stimulated, 4 h; inhibition, % at 9.99 µM; AID 720647; 380,000 compounds, 0.35% hits;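 active = drop in luminescence signal, shown as inhibition above about 50% in the replicate tests, limit read from the data, passing the limit was not always enough; inconclusive = probably only some replicates passing the limit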;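 also: agonist challenge used bursicon conditioned medium at about half maximal strength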
Numbers stand for hits; 0 = inactive; ? = inconclusive; - = no result.

SMILES	miR-122 sensor	EWS-Fli block	F508del corr	Yeast UUG start	PglD DTNB	LGR2 antag
CC(=O)Nc1ccc(NC(=O)C2CCCN2C(=O)Nc2cccc(F)c2)cc1 (configuration not stated)	-	0	0	0	0	0
Cc1ccc(OC(=O)c2cccc(S(=O)(=O)N3CCN(C)CC3)c2)c(Br)c1	0	0	0	0	0	0
CC(=O)Nc1ccc(S(=O)(=O)Nc2ccc3c(c2)n(C)c(=O)n3C)c(C)c1	156	0	0	0	0	0
COc1ccc(C(=O)NCC2CCCCC2)cc1S(=O)(=O)N1CCOCC1	0	0	0	0	0	0
Cc1nnc(SCc2cc(=O)[nH]c(/N=C(\N)Nc3ccccc3)n2)s1	0	0	0	0	0	0
CCOc1ccc(N/C(N)=N/c2nc(CSc3nnc(C)s3)cc(=O)[nH]2)cc1	-	67	?	-	-	0
Cc1ccc(S(=O)(=O)N(C)C[C@@H]2OCCCC[C@@H](C)Oc3ccc(NC(=O)NC4CCCCC4)cc3C(=O)N([C@H](C)CO)C[C@@H]2C)cc1	0	0	0	0	0	0
CCN1C(=O)CCN(C2CCCC2)c2nc(Nc3ccc(C(=O)NC4CCN(C)CC4)cc3OC)ncc21	0	62	0	0	0	0
COc1ccc(C(=O)NC2CCCCCC2)cc1S(=O)(=O)N1CCCc2ccccc21	0	-	-	0	0	-
CCn1cc(C(=O)NCCN(C)C)c(=O)c2cc(F)c(N3CCN(C)CC3)cc21	-	0	0	0	0	0
CN(CCO)c1cc(Sc2nc3ccccc3s2)c2nonc2c1[N+](=O)[O-]	0	53	0	0	0	0
CC(=O)OCCN(C)c1cc(SC(C)C)c2nonc2c1[N+](=O)[O-]	0	0	0	0	0	0
COc1ccc2c3c([nH]c2c1)[C@@H](CO)N(C(=O)Nc1c(C)noc1C)CC31CCN(CC2CCCC2)CC1	-	0	0	-	-	0
Cc1ccccc1-c1nc(CS(=O)(=O)CC(=O)NCc2ccccc2)c(C)o1	0	0	8.8	0	0	0
COC1=CC(=O)c2c(ccc3ncnc(N)c23)C1=O	0	0	0	-	-	96
CCOc1ccc(NC(=O)Nc2ccc3c(c2)nc(C)n3C)cc1	0	0	0	0	0	0
CCOC(=O)Nc1nc2ccc(Cn3cccc3)cc2[nH]1	-	51	0	-	-	0
CCOC(=O)C1CCCN(c2nc3ccccc3nc2NS(=O)(=O)c2ccc(C)cc2)C1 (configuration not stated)	0	0	21	0	0	0
NC(=O)C1CCN(c2nc3ccccc3nc2NS(=O)(=O)c2ccc(Br)cc2)CC1	0	0	0	0	0	0
COc1ccc(NC(=S)NCc2ccc3c(c2)OCO3)cc1	0	65	-	0	0	0
CCOc1ccc(NC2CCCCC2NS(=O)(=O)c2ccccc2)cc1 (configuration not stated)	0	0	0	-	-	0
CN(C)CC(=O)Nc1ccc2c(c1)[C@H]1C[C@H](CC(=O)N3CCCCC3)O[C@@H](CO)[C@H]1O2	0	0	0	-	0	0
CC(=O)N1/C(=C/c2ccc(N(C)C)cc2)C(=O)c2ccccc21	-	0	0	-	-	75
CCOC(=O)c1c(CN2CCN(C)CC2)n(-c2ccccc2)c2cc(Br)c(O)cc12	-	0	0	-	-	0
CCOC(=O)c1c(CSC(=N)N)n(-c2ccccc2)c2cc(Br)c(OC(C)=O)cc12	-	0	0	-	-	63
SMILES	miR-122 sensor	EWS-Fli block	F508del corr	Yeast UUG start	PglD DTNB	LGR2 antag
Cc1ccccc1OCCOC(=O)c1c(-c2ccccc2)noc1C	0	58	0	0	0	0
COc1ccc2cc(CNCCOCCOCCNCc3ccc4cc(OC)ccc4c3)ccc2c1	-	56	0	-	-	103
CCc1c(C(=O)NCc2ccccc2Cl)[nH]c(C)c1C(C)=O	118	-	-	0	0	-
CC(=O)c1c(C)[nH]c(C(=O)NC2CCCCC2)c1C	0	-	-	0	0	-
CCc1c(C(=O)NC2CCCCC2)[nH]c(C)c1C(C)=O	212	-	-	0	0	-
CN(C)CC(=O)N1[C@@H](C#N)[C@H](c2ccc(-c3cccc(C(=O)N(C)C)c3)cc2)[C@@H]1CO	-	0	0	0	0	0
CCCCNS(=O)(=O)c1ccc2nc(-c3cccnc3)cc(C(=O)NC3CC3)c2c1	0	0	0	0	0	0
CCCCNS(=O)(=O)c1ccc2nc(-c3cccnc3)cc(C(=O)NC3CCCC3)c2c1	97	0	0	-	-	0
c1ccc(COc2cccc(CN3CCCCC3)c2)cc1	-	0	0	0	-	0

Screens from PubChem.
